# PKA-R2B act: activators of human PKA-R2B complex. P22694+P31323. PKA-R2B holoenzyme dissociation, Cy5-IP20 fluorescence polarization; R2B truncated from residue 108, S112A mutant; 0% DMSO only, 100% 113 µM cGMP. activation, % at 11.4 µM. hit rate 0.079% among 340,000. AID 504700;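 active = activation above a cutoff set at the mean over all compounds plus 3 SD, cut at about 18% in these data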;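 also: higher means more holoenzyme dissociation and a rise in polarization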
# Exocytosis inh: blocks lytic granule exocytosis | inhibition, % at 10 µM | hit rate 0.66% among 360,000 | TALL-104 LAMP-1 surface exposure, flow cytometry; cells stimulated with thapsigargin and PMA | AID 651702;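 active = inhibition above about 55%, limit read from the data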
# UUG fidelity: modulators of yeast start codon fidelity, primary screen, whole organism, S. cerevisiae, single point, plate reader | S. cerevisiae UUG-firefly luciferase reporter, luminescence/redox ratio | activity score, % at 18.7 µM | hit rate 0.13% among 350,000;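 active = replicate mean at a twofold rise or more, about +100% in these data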;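 note: firefly luciferase made from a UUG start codon reports start codon fidelity; reporter light over untreated wells divided by growth signal over untreated wells; some hits fall short of that in this replicate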
# pCIP destab: lowers stability of the mouse p/CIP coactivator protein | Q05BA5 | decrease of EGFP signal, % at 10 µM | F442A p/CIP-EGFP cells, EGFP fluorescence, 16 h | hit rate 0.01% among 290,000;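 active = EGFP signal decrease of at least 30% at 10 µM or well 3 SD below plate mean, unless failing retest; inactive = the rest, including hits failing retest or dose response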
# PKA-R1A act: PKA-R1A complex activation. P00514+P68181. PKA-R1A dissociation, Cy5-IP20 fluorescence polarization; scaled: DMSO 0%, 113 µM cGMP 100%. hit rate 0.083% among 340,000. AID 504707. activation, % at 11.4 µM;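 active = percent activation above the mean of all tested compounds plus 3 SD, cut at about 19% in these data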;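 also: higher means more PKAc released from R1A so a rise in polarization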
# ABCB6 inh 2: blocks the human ABCB6 transporter. AID 602162. hit rate 0.19% among 360,000. fluorescence ratio to DMSO, % at 10 µM. K562-ABCB6 porphyrin accumulation, flow cytometry, 1 h; hits give low values;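 active = fluorescence ratio to DMSO below 75%, the collection mean minus 3 SD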;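 also: signal is porphyrin accumulated inside mitochondria; 100% equals median channel fluorescence of DMSO control wells; lower ratio means ABCB6 inhibition with less porphyrin fluorescence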
# Active calls of the source: *; · = not tested or not shown. Shown are actives, neighbours in structure and some others; about 0.94% of the full set was active somewhere.
1: O=[N+]([O-])/C=C\c1ccc(N2CCCC2)c(F)c1
2: O=Cc1ccc(N2CCCC2)c([N+](=O)[O-])c1
3: CCOC(=O)Cn1c(-c2ccccc2)cc(SC)c(C#N)c1=O
4: COc1ccc(NC(=O)Nc2ccc3c(c2)C(=O)N([C@H](C)CO)C[C@H](C)[C@H](CN(C)C(=O)Nc2c(C)noc2C)OCCCC[C@H](C)O3)cc1
5: Cc1cc(N/N=C/c2ccc(F)cc2)nc(NCc2ccccc2)n1
Compound	1	2	3	4	5
PKA-R2B act	8	13	-3	·	·
Exocytosis inh	75*	-2	61*	·	-1
UUG fidelity	-17	·	-9	-19	5
pCIP destab	-5	-34	-28	·	-8
PKA-R1A act	0	7	2	·	·
ABCB6 inh 2	118	93	90	·	95

6: Cc1ccc(/C=N/Nc2cc(C)nc(NCc3ccccc3)n2)cc1
7: O=C(c1ccc(F)cc1)C(CN1CCOCC1)c1ccccc1 (stereo not drawn)
8: O=C(c1ccccc1)C(CCC(CN1CCOCC1)C(=O)c1ccccc1)CN1CCOCC1 (stereo not drawn)
9: CC(=O)Nc1ccc(NC(=S)NC(=O)/C=C/c2ccco2)cc1
10: CN1CCN(c2ccc(NC(=S)NC(=O)/C=C/c3ccco3)cc2)CC1
Compound	6	7	8	9	10
PKA-R2B act	-8	8	-7	1	-7
Exocytosis inh	88*	9	76*	0	57*
UUG fidelity	·	-7	-45	-30	-14
pCIP destab	0	-18	-4	-3	-6
PKA-R1A act	-2	-4	-14	-11	5
ABCB6 inh 2	95	98	81	102	100

11: C[C@H]1CCCCO[C@H](CN(C)Cc2ccc3c(c2)OCO3)[C@@H](C)CN([C@@H](C)CO)C(=O)c2cc(NS(=O)(=O)c3cccs3)ccc2O1
12: CCOc1nc(Nc2ccc([N+](=O)[O-])cc2)nc(NC(C)(C)C)n1
13: CCN(CC)c1nc(Nc2ccc([N+](=O)[O-])cc2)nc(N(CC)CC)n1
14: Cc1cc(O)c(C(C)C)cc1C1(c2cc(C(C)C)c(O)cc2C)OC(=O)c2ccccc21
15: CCOC(=O)c1ccc(N2C(=O)C=CC2=O)cc1
Compound	11	12	13	14	15
PKA-R2B act	·	2	-7	-8	1
Exocytosis inh	·	-3	107*	88*	105*
UUG fidelity	32	-15	-11	-3	0
pCIP destab	·	-1	-1	5	-9
PKA-R1A act	·	-20	-6	-9	-10
ABCB6 inh 2	·	106	100	102	96

16: CCOC(=O)c1ccc(-n2c(C)ccc2C)cc1
17: C/C(=N\NC(=O)c1ccc(F)cc1)c1ccc(NC(=O)Cc2ccccc2)cc1
18: C/C(=N/NC(=O)Cn1nc2ccccc2n1)c1ccc(F)cc1
19: CO[C@H]1CN(C)C(=O)c2cc(NC(C)=O)ccc2OC[C@@H](C)N(C(=O)Cc2cccnc2)C[C@H]1C
20: O=C1/C(=C/Nc2cccc([N+](=O)[O-])c2)CCc2ccccc21
Compound	16	17	18	19	20
PKA-R2B act	1	3	-4	·	4
Exocytosis inh	5	4	2	·	89*
UUG fidelity	·	-6	-14	-10	-31
pCIP destab	6	-2	5	·	2
PKA-R1A act	2	1	-1	·	-2
ABCB6 inh 2	100	100	74*	·	99

21: O=C1/C(=C\c2ccc([N+](=O)[O-])cc2)CCc2ccccc21
22: C[C@@H](O)C#Cc1cnc2c(c1)C(=O)N([C@@H](C)CO)C[C@H](C)[C@@H](CN(C)C(=O)c1ccncc1)O2
23: CCOP(=O)(OCC)/C(=N/OC(=O)c1ccc(OC)cc1)C(N)=O
24: CCOc1ccc(C(=O)C(CCC(CN(C)C)C(=O)c2ccc(OCC)cc2)CN(C)C)cc1 (stereo not drawn)
25: COc1ccc(C(=O)C(CCCCC(CN(C)C)C(=O)c2ccc(OC)cc2)CN(C)C)cc1 (stereo not drawn)
26: C[C@@H]1CN([C@H](C)CO)C(=O)c2cc(NS(=O)(=O)c3ccc(Cl)cc3)ccc2O[C@@H]1CN(C)S(C)(=O)=O
27: C[C@H](CO)N1C[C@H](C)[C@@H](CN(C)C(=O)Nc2ccc3c(c2)OCO3)OCCCC[C@H](C)Oc2ccc(NC(=O)Nc3ccccc3)cc2C1=O
28: O=C1C(Cl)=C(Nc2ccc3cn[nH]c3c2)C(=O)c2ccccc21
Compound	21	22	23	24	25	26	27	28
PKA-R2B act	-6	·	4	-6	-1	·	·	-11
Exocytosis inh	-2	·	70*	60*	21	·	·	15
UUG fidelity	·	-8	-5	·	0	-5	3	-17
pCIP destab	-3	·	-14	7	-13	·	·	59*
PKA-R1A act	5	·	2	1	-8	·	·	-11
ABCB6 inh 2	94	·	93	100	101	·	·	65*

# Compound activity as filed in PubChem.
